In PubChem BioAssay AID624268 (The Scripps Research Institute Molecular Screening Center, 2012):
Only a part is listed here, and it is no random draw. Some of these compounds have results that are not shown, active ones among them. The source made the active and inactive calls.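 How the source made its calls: active means inhibition above a per-plate cutoff of the control wells' mean inhibition plus 3 SD (cut at about 5.5% in these data); inactive means the rest.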

What follows are compounds tested on methionyl-tRNA synthetase (Trypanosoma brucei brucei) (assay: T. brucei MetRS inhibitors, primary screen, biochemical, luminescence (AID 624268;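 further: 0% = DMSO wells median and 100% = median of wells with control inhibitor compound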)). Details: purified T. brucei MetRS, ATP depletion, Kinase-Glo luminescence; at 11.9 µM; stronger effect = higher value.
In short: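 Dosing: 11.9 µM compound single dose, 0.9% DMSO; Assay system: purified T. brucei MetRS enzyme; Measured by: Kinase-Glo luciferase luminescence reporting remaining unconsumed ATP; Schedule: 15 min plus 2 h at 25 °C.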

| Compound | inhibition |
| --- | --- |
| COc1ccc(Br)c(C(=O)NCC2(N3CCCCC3)CCCCC2)c1 | inactive: -0.4% |
| C=C(C)C#CC(O)(C(=O)OC1CCN(C)CC1)c1ccccc1 (stereo unspecified) | inactive: -0.19% |
| CN(C)c1cccc(C(=O)NCC2(N(C)C)CCCCC2)c1 | inactive: -1.11% |
| O=C(OCCN1CCCC1)C(O)(c1ccccc1)c1ccccc1 | inactive: -0.3% |
| CC(C)Oc1ccc(C(=O)NCC2(N(C)C)CCCCC2)cc1 | inactive: -0.38% |
| O=C(OC1CN2CCC1CC2)C(CO)(c1ccccc1)c1ccccc1 (stereo unspecified) | inactive: -1% |
| COc1ccc(Cl)cc1C(=O)NCC1(N(C)C)CCCCC1 | inactive: 0.06% |
| COc1cccc(C(=O)NCC2(N3CCCCC3)CCCCC2)c1 | inactive: -0.21% |
| O=C(NCC1(N2CCCCC2)CCCCC1)c1cccc(Cl)c1 | inactive: -0.89% |
| CN(C)C1(CNC(=O)c2ccc(Br)cc2)CCCCC1 | inactive: -0.32% |
| COc1cc(C(=O)NCC2(N(C)C)CCCCC2)c([N+](=O)[O-])cc1OC | inactive: -0.54% |
| O=C(NCC1(N2CCCCC2)CCCCC1)c1cc(F)c(F)cc1Cl | inactive: -0.33% |
| C=CCN1CCN(CCOC(=O)C(O)(c2ccccc2)c2ccccc2)CC1 | inactive: 0.27% |
| O=C(NCC1(N2CCCCC2)CCCCC1)c1cccc(Br)c1 | inactive: 0.28% |
| CCN1CCCC(OC(=O)C2(O)c3ccccc3C=Cc3ccccc32)C1 (stereo unspecified) | inactive: -0.96% |
| Cc1cc(C(=O)NCC2(N3CCCCC3)CCCCC2)ccc1[N+](=O)[O-] | inactive: -0.31% |
| COc1ccc(C(=O)NCC2(N(C)C)CCCCC2)cc1 | inactive: 1.27% |
| CN(C)c1ccc(C(=O)NCC2(N(C)C)CCCCC2)cc1 | inactive: -0.04% |
| CN(C)C1CCCC1OC(=O)C(O)(c1ccccc1)c1ccccc1 (stereo unspecified) | inactive: 0.45% |
| Cc1ccccc1C(=O)NCC1(N2CCCCC2)CCCCC1 | inactive: -0.07% |
| CC(C)N1C(=O)CC2(CCN(CCOC(=O)C(O)(c3ccccc3)c3ccccc3)CC2)C1=O | inactive: -0.77% |
| COc1cc(SC)ccc1C(=O)NCC1(N(C)C)CCCCC1 | inactive: -1.7% |
| CCN(CC)CC(C)C(C)OC(=O)C(O)(c1ccccc1)c1ccccc1 (stereo unspecified) | inactive: -0.14% |
| Cc1ccc(C(=O)NCC2(N3CCCCC3)CCCCC2)cc1 | inactive: -0.31% |
| O=C(NCC1(N2CCCCC2)CCCCC1)c1cc([N+](=O)[O-])ccc1Cl | inactive: -0.16% |
| CN1[C@@H]2CC[C@H]1CC(OC(=O)C(O)(c1ccccc1)c1ccccc1)C2 (stereo partly specified) | inactive: -0.51% |
